Experimental findings from patent US6908919B2, “Substituted polycyclic aryl and heteroaryl pyrazinones useful for selective inhibition of the coagulation cascade” (Pharmacia Corporation, priority 1999, dated 2005) are described below.

Sequences of proteins named here, by UniProt entry; tags and fusion partners are left off. Residues count along the entry.
UniProt P00761, 9-231: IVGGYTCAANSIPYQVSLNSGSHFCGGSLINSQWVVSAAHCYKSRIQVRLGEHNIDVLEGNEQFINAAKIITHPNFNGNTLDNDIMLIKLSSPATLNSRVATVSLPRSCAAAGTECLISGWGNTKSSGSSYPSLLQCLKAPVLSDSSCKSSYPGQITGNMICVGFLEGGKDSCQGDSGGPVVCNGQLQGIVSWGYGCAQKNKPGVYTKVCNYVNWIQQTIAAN

Each structure is given as a SMILES string.

The target of one assay is Trypsin (type IX from porcine pancreas) (Sus scrofa, UniProt P00761). Description: Trypsin Assay.
Conditions: not given
The term IC50 denotes the concentration that gives 50% inhibition. Low readings indicate inhibition by little substance, high ones a need for much substance. The compound `CN(C)CC/N=C(\NCCN(C)C)c1ccc(CNC(=O)Cn2c(-c3cccc(N)c3)c(Cl)nc(NC3CCC3)c2=O)cc1` [Example 165] registered an IC50 of 83 µM.

With `CN(C)CCNC(=N)c1ccc(CNC(=O)Cn2c(-c3cccc(N)c3)c(Cl)nc(NC3CCC3)c2=O)cc1` [Example 166], the IC50 was 81 µM.

Staying with this assay, now noted: 1 h, read-out: % Inhibition Trpysin II (30 µM).
What is called inhibition is the change of the read-out against control, counted positive when it falls. Regarding `COCC/N=C(\NCCOC)c1ccc(CNC(=O)Cn2c(-c3cccc(N)c3)c(Cl)nc(NC3CCC3)c2=O)cc1` [Example 164], the inhibition at 30 µM was found to be 15%.

The same assay, now with this note: inhibitor at 100 µM.
In the case of `Cc1c(Cl)nc(NCc2ccccc2)c(=O)n1CC(=O)NCCc1ccncc1` [Example E-0001], the “% Inhibition Trpysin II (100 µM)” value amounted to 0%.

On to `Cc1c(Cl)nc(NCCc2ccccc2)c(=O)n1CC(=O)NCCc1ccncc1` [Example E-0002], for which the “% Inhibition Trpysin II (100 µM)” value came out at 0%.

With `Cc1c(Cl)nc(NCCc2cccc(Cl)c2)c(=O)n1CC(=O)NCCc1ccncc1` [Example E-0003], the “% Inhibition Trpysin II (100 µM)” value was determined as 0%.

As to `Cc1c(Cl)nc(NCCc2ccc(Cl)cc2)c(=O)n1CC(=O)NCCc1ccncc1` [Example E-0004], the “% Inhibition Trpysin II (100 µM)” value stood at 0%.

As to `Cc1c(Cl)nc(NCCc2cccnc2)c(=O)n1CC(=O)NCCc1ccncc1` [Example E-0005], the “% Inhibition Trpysin II (100 µM)” value came to 0%.

Turning to `Cc1c(Cl)nc(NCCN2CCOCC2)c(=O)n1CC(=O)NCCc1ccncc1` [Example E-0007], the “% Inhibition Trpysin II (100 µM)” value was determined as 0%.

`Cc1c(Cl)nc(NCc2ccncc2)c(=O)n1CC(=O)NCCc1ccncc1` [Example E-0008]: the “% Inhibition Trpysin II (100 µM)” value was 0%.

For `O=C(Cn1c(-c2ccccc2)c(Cl)nc(NCCc2ccccc2)c1=O)NCCc1ccncc1` [Example E-0010], the “% Inhibition Trpysin II (100 µM)” value worked out at 0%.

Turning to `O=C(Cn1c(-c2ccccc2)c(Cl)nc(NCCc2cccc(Cl)c2)c1=O)NCCc1ccncc1` [Example E-0011], the “% Inhibition Trpysin II (100 µM)” value is 0%.

As to `O=C(Cn1c(-c2ccccc2)c(Cl)nc(NCCc2ccc(Cl)cc2)c1=O)NCCc1ccncc1` [Example E-0012], the “% Inhibition Trpysin II (100 µM)” value is recorded as 0%.

As for `O=C(Cn1c(-c2ccccc2)c(Cl)nc(NCCc2ccncc2)c1=O)NCCc1ccncc1` [Example E-0014], the “% Inhibition Trpysin II (100 µM)” value is listed as 0%.

Regarding `O=C(Cn1c(-c2ccccc2)c(Cl)nc(NCc2ccncc2)c1=O)NCCc1ccncc1` [Example E-0016], the “% Inhibition Trpysin II (100 µM)” value is recorded as 4%.

`COc1ccc(-c2c(Cl)nc(NCc3ccccc3)c(=O)n2CC(=O)NCCc2ccncc2)cc1` [Example E-0033]: the “% Inhibition Trpysin II (100 µM)” value was 5%.

`COc1ccc(-c2c(Cl)nc(NCCc3cccnc3)c(=O)n2CC(=O)NCCc2ccncc2)cc1` [Example E-0037]: the “% Inhibition Trpysin II (100 µM)” value amounted to 2%.

With `COc1ccc(-c2c(Cl)nc(NCCc3ccncc3)c(=O)n2CC(=O)NCCc2ccncc2)cc1` [Example E-0038], the “% Inhibition Trpysin II (100 µM)” value is listed as 3%.

In the case of `COc1ccc(-c2c(Cl)nc(NCCN3CCOCC3)c(=O)n2CC(=O)NCCc2ccncc2)cc1` [Example E-0039], the “% Inhibition Trpysin II (100 µM)” value is on record as 2%.

For `COc1ccc(-c2c(Cl)nc(NCc3ccncc3)c(=O)n2CC(=O)NCCc2ccncc2)cc1` [Example E-0040], the “% Inhibition Trpysin II (100 µM)” value was 4%.

`O=C(Cn1c(-c2ccc3c(c2)OCO3)c(Cl)nc(NCc2ccccc2)c1=O)NCCc1ccncc1` [Example E-0041]: the “% Inhibition Trpysin II (100 µM)” value was found to be 2%.

Regarding `O=C(Cn1c(-c2ccc3c(c2)OCO3)c(Cl)nc(NCCc2ccccc2)c1=O)NCCc1ccncc1` [Example E-0042], the “% Inhibition Trpysin II (100 µM)” value came out at 5%.

With `O=C(Cn1c(-c2ccc3c(c2)OCO3)c(Cl)nc(NCCc2cccc(Cl)c2)c1=O)NCCc1ccncc1` [Example E-0043], the “% Inhibition Trpysin II (100 µM)” value was found to be 3%.

Turning to `O=C(Cn1c(-c2ccc3c(c2)OCO3)c(Cl)nc(NCCc2ccc(Cl)cc2)c1=O)NCCc1ccncc1` [Example E-0044], the “% Inhibition Trpysin II (100 µM)” value is given as 3%.

For `O=C(Cn1c(-c2ccc3c(c2)OCO3)c(Cl)nc(NCCc2cccnc2)c1=O)NCCc1ccncc1` [Example E-0045], the “% Inhibition Trpysin II (100 µM)” value worked out at 4%.

Take `O=C(Cn1c(-c2ccc3c(c2)OCO3)c(Cl)nc(NCCc2ccncc2)c1=O)NCCc1ccncc1` [Example E-0046]: the “% Inhibition Trpysin II (100 µM)” value turned out to be 4%.

For the compound `O=C(Cn1c(-c2ccc3c(c2)OCO3)c(Cl)nc(NCCN2CCOCC2)c1=O)NCCc1ccncc1` [Example E-0047], the “% Inhibition Trpysin II (100 µM)” value is listed as 2%.

Take `O=C(Cn1c(-c2ccc3c(c2)OCO3)c(Cl)nc(NCc2ccncc2)c1=O)NCCc1ccncc1` [Example E-0048]: the “% Inhibition Trpysin II (100 µM)” value was 0%.

As for `O=C(Cn1c(Cc2ccccc2)c(Cl)nc(NCc2ccccc2)c1=O)NCCc1ccncc1` [Example E-0057], the “% Inhibition Trpysin II (100 µM)” value stood at 0%.

In the case of `O=C(Cn1c(Cc2ccccc2)c(Cl)nc(NCCc2ccccc2)c1=O)NCCc1ccncc1` [Example E-0058], the “% Inhibition Trpysin II (100 µM)” value stood at 0%.

Turning to `O=C(Cn1c(Cc2ccccc2)c(Cl)nc(NCCc2cccc(Cl)c2)c1=O)NCCc1ccncc1` [Example E-0059], the “% Inhibition Trpysin II (100 µM)” value turned out to be 0%.

For `O=C(Cn1c(Cc2ccccc2)c(Cl)nc(NCCc2ccc(Cl)cc2)c1=O)NCCc1ccncc1` [Example E-0060], the “% Inhibition Trpysin II (100 µM)” value is 0%.

Regarding `O=C(Cn1c(Cc2ccccc2)c(Cl)nc(NCCc2cccnc2)c1=O)NCCc1ccncc1` [Example E-0061], the “% Inhibition Trpysin II (100 µM)” value is 0%.

As to `O=C(Cn1c(Cc2ccccc2)c(Cl)nc(NCCc2ccncc2)c1=O)NCCc1ccncc1` [Example E-0062], the “% Inhibition Trpysin II (100 µM)” value is reported as 0%.

For the compound `O=C(Cn1c(Cc2ccccc2)c(Cl)nc(NCCN2CCOCC2)c1=O)NCCc1ccncc1` [Example E-0063], the “% Inhibition Trpysin II (100 µM)” value is recorded as 0%.

Take `O=C(Cn1c(Cc2ccccc2)c(Cl)nc(NCc2ccncc2)c1=O)NCCc1ccncc1` [Example E-0064]: the “% Inhibition Trpysin II (100 µM)” value came out at 0%.

Take `O=C(Cn1c(CCc2ccccc2)c(Cl)nc(NCc2ccccc2)c1=O)NCCc1ccncc1` [Example E-0065]: the “% Inhibition Trpysin II (100 µM)” value was found to be 0%.

As to `O=C(Cn1c(CCc2ccccc2)c(Cl)nc(NCCc2ccccc2)c1=O)NCCc1ccncc1` [Example E-0066], the “% Inhibition Trpysin II (100 µM)” value turned out to be 0%.

`O=C(Cn1c(CCc2ccccc2)c(Cl)nc(NCCc2cccc(Cl)c2)c1=O)NCCc1ccncc1` [Example E-0067]: the “% Inhibition Trpysin II (100 µM)” value was determined as 0%.

On to `O=C(Cn1c(CCc2ccccc2)c(Cl)nc(NCCc2ccc(Cl)cc2)c1=O)NCCc1ccncc1` [Example E-0068], for which the “% Inhibition Trpysin II (100 µM)” value was 0%.

Turning to `O=C(Cn1c(CCc2ccccc2)c(Cl)nc(NCCc2cccnc2)c1=O)NCCc1ccncc1` [Example E-0069], the “% Inhibition Trpysin II (100 µM)” value amounted to 0%.

Turning to `O=C(Cn1c(CCc2ccccc2)c(Cl)nc(NCCc2ccncc2)c1=O)NCCc1ccncc1` [Example E-0070], the “% Inhibition Trpysin II (100 µM)” value is 0%.

For the compound `O=C(Cn1c(CCc2ccccc2)c(Cl)nc(NCCN2CCOCC2)c1=O)NCCc1ccncc1` [Example E-0071], the “% Inhibition Trpysin II (100 µM)” value amounted to 0%.

For `O=C(Cn1c(CCc2ccccc2)c(Cl)nc(NCc2ccncc2)c1=O)NCCc1ccncc1` [Example E-0072], the “% Inhibition Trpysin II (100 µM)” value stood at 0%.

Turning to `COc1ccc(-c2c(Cl)nc(NCc3ccccc3)c(=O)n2CC(=O)NCCc2cccnc2)cc1` [Example E-0098], the “% Inhibition Trpysin II (100 µM)” value is recorded as 8%.

With `COc1ccc(-c2c(Cl)nc(NCCc3cccc(Cl)c3)c(=O)n2CC(=O)NCCc2cccnc2)cc1` [Example E-0104], the “% Inhibition Trpysin II (100 µM)” value is recorded as 9%.
